# Patent US10149876B2, “Tripterygium wilfordii extracts to overcome chemotherapy resistance” (WESTERN UNIVERSITY OF HEALTH SCIENCES, priority 2012, dated 2018)
# Read-outs that look alike come from different tables or passages of the source.
# How the values were obtained:
# Format in all cases: cell-based, human
# BT474-TxR cells = test: SRB cell viability assay, Herceptin-resistant BT474-TxR cells; settings: for mean A at 565 nm: 72 h, background = 0.045
# BT474/Her cells = test: SRB cell viability assay, Herceptin-resistant BT474/Her cells; settings: 72 h, no LGT-E pre-treatment, background = 0.047
# BT474 cells = test: SRB cell viability assay, Herceptin-sensitive BT474 cells; settings: no sensitizing agent added
# Experimental: Cell culture of the above cell lines was performed as described in Example 2, except that 5,000, rather than 3,000 cells were plated per well for the K562, K562/Dox, BT474, SkBr3 lines.
# Table 17 also contains the serially-diluted concentrations of drugs that each cell line was tested against.
substance,measurement,setting,value
trastuzumab [Herceptin ®],IC50 of drug when cells pre-treated with Chemosensitizing Agent before drug treatment,"BT474-TxR cells; Herceptin, BT474-TxR, LGT-E […] pre-treatment",(4366 μg/ml)
same,IC50,"BT474-TxR cells; Herceptin, BT474-TxR, LGT-E […] pre-treatment, read-out: IC50 of drug when cells pre-treated with Chemosensitizing Agent before drug treatment",30 µM
same,IC50 of drug when cells treated with drug only,"BT474-TxR cells; Herceptin, BT474-TxR, line of LGT-E […]",(4366 μg/ml)
same,IC50,"BT474-TxR cells; Herceptin, BT474-TxR, line of LGT-E […], read-out: IC50 of drug when cells treated with drug only",30 µM
same,mean A at 565 nm,"BT474-TxR cells; Trastuzumab 0.001 μM, no LGT-E pre-treatment",2.029
same,mean A at 565 nm,"BT474-TxR cells; Trastuzumab 0.001 μM, pre-treated with 13 μg/ml LGT-E",1.887
same,mean A at 565 nm,"BT474-TxR cells; Trastuzumab 0.2 μM, no LGT-E pre-treatment",2.013
same,mean A at 565 nm,"BT474-TxR cells; Trastuzumab 0.2 μM, pre-treated with 13 μg/ml LGT-E",1.892
same,mean A at 565 nm,"BT474-TxR cells; Trastuzumab 0.667 μM, no LGT-E pre-treatment",2.058
same,mean A at 565 nm,"BT474-TxR cells; Trastuzumab 0.667 μM, pre-treated with 13 μg/ml LGT-E",1.901
same,mean A at 565 nm,"BT474-TxR cells; Trastuzumab 2 μM, no LGT-E pre-treatment",2.126
same,mean A at 565 nm,"BT474-TxR cells; Trastuzumab 2 μM, pre-treated with 13 μg/ml LGT-E",2.020
same,mean A at 565 nm,"BT474-TxR cells; Trastuzumab 6.67 μM, no LGT-E pre-treatment",2.050
same,mean A at 565 nm,"BT474-TxR cells; Trastuzumab 6.67 μM, pre-treated with 13 μg/ml LGT-E",1.546
same,mean A at 565 nm,"BT474-TxR cells; Trastuzumab 20 μM, no LGT-E pre-treatment",1.682
same,mean A at 565 nm,"BT474-TxR cells; Trastuzumab 20 μM, pre-treated with 13 μg/ml LGT-E",1.013
same,mean A at 565 nm,"BT474-TxR cells; Trastuzumab 66.7 μM, no LGT-E pre-treatment",1.941
same,mean A at 565 nm,"BT474-TxR cells; Trastuzumab 66.7 μM, pre-treated with 13 μg/ml LGT-E",1.056
same,mean A at 565 nm,"BT474-TxR cells; Trastuzumab 200 μM, no LGT-E pre-treatment",1.960
same,mean A at 565 nm,"BT474-TxR cells; Trastuzumab 200 μM, pre-treated with 13 μg/ml LGT-E",1.538
same,mean A at 565 nm,BT474/Her cells; Trastuzumab 0.001 μM,2.352
same,mean A at 565 nm,BT474/Her cells; Trastuzumab 0.03 μM,2.204
same,mean A at 565 nm,BT474/Her cells; Trastuzumab 0.1 μM,2.246
same,mean A at 565 nm,BT474/Her cells; Trastuzumab 0.3 μM,2.259
same,mean A at 565 nm,BT474/Her cells; Trastuzumab 1 μM,2.205
same,mean A at 565 nm,BT474/Her cells; Trastuzumab 3 μM,2.113
same,mean A at 565 nm,BT474/Her cells; Trastuzumab 10 μM,2.143
same,mean A at 565 nm,BT474/Her cells; Trastuzumab 30 μM,2.119
same,IC50 of drug when cells treated with drug only,BT474 cells,(523 μg/ml)
same,IC50,BT474 cells; read-out: IC50 of drug when cells treated with drug only,3.59 µM
